Reference: patent publication US20210369724A1, “COMBINATION OF ATR KINASE INHIBITORS WITH 2,3-DIHYDROIMIDAZO[1,2-C]QUINAZOLINE COMPOUNDS” (Bayer Aktiengesellschaft, priority 2018, published 2021)
pIC50: −log10 of the molar value. Where two headings read alike, the source gives them in different places. Marks after values point to notes of the source that are not given here.

Experiments:
[1] = test system: SUM-149 breast cancer xenograft; assay: Human SUM-149 breast cancer xenograft model; conditions: mouse, in vivo
VCaP = assay: Proliferation assay of prostate cancer cell lines with R1881 (Cell Titre-Glo, 144 h); type: cell-based; conditions: Homo sapiens, read-out: IC50, mono
[2] = test system: SUM-149 breast cancer xenograft; conditions: mouse, in vivo, po, 20 mg/kg
NCI-H460 = assay: Proliferation assay of cell lines treated with Compound A, Compound B and fixed-ratio combinations (Cell Titre-Glo, 96 h); type: cell-based; conditions: Homo sapiens, NCI-H460, 96 h, read-out: IC50, mono
[3] = test system: Ri-1 B cell lymphoma xenograft; conditions: mouse, in vivo, po, 20 mg/kg
[4] = test system: small cell lung cancer cell line NCI-H1048; assay: Full matrix combination, 72-hour proliferation assay (CellTiter-Glo); type: cell-based
Description: Percentage of control (DMSO) in tumor cell growth assay in vitro is used for the assessment of combination effects.
The efficacy parameters were the effects in a 72-hour assay. Tumor cells were cultured in 37° C. incubator in their respective growth medium and serum according to the protocol from providers. […] Cell viability was assessed after 72 hour exposure with the Cell Titre-Glo Luminescent Cell Viability Assay (Promega).

OVCAR-3 = assay: 72-hour growth assay of ovary cancer cell lines (Cell Titre-Glo); type: cell-based; conditions: Homo sapiens, OVCAR-3, 72 h, read-out: IC50, mono [M]
IGR-OV1 = assay: Proliferation assay, mono and fixed-ratio combinations (Cell Titre-Glo, 96 h); type: cell-based; conditions: Homo sapiens, IGROV-1, 96 h, read-out: IC50, mono
[5] = test system: Ri-1 B cell lymphoma xenograft; assay: Human Ri-1 B cell lymphoma xenograft model; conditions: mouse, in vivo
SNU-449 = assay: Proliferation assay, mono and fixed-ratio combinations (Cell Titre-Glo, 96 h); type: cell-based; conditions: Homo sapiens, SNU-449, 96 h, read-out: IC50, mono
SUM-149 = assay: as above; type: cell-based; conditions: Homo sapiens, SUM149, 96 h, read-out: IC50, mono
HCT 116 = assay: as above; type: cell-based; conditions: Homo sapiens, HCT-116, 96 h, read-out: IC50, mono
Huh-7 = assay: as above; type: cell-based; conditions: Homo sapiens, Huh-7, 96 h, read-out: IC50, mono
[6] = test system: 22Rv1 prostate cancer xenograft; conditions: mouse, in vivo, po
A2780 = assay: 72-hour growth assay of ovary cancer cell lines (Cell Titre-Glo); type: cell-based; conditions: Homo sapiens, A2780, 72 h, read-out: IC50, mono [M]
[7] = test system: IGR-OV1 endometrial cancer xenograft; assay: Human IGR-OV1 endometrial cancer xenograft model; conditions: mouse, in vivo, po, 20 mg/kg
IGR-OV1 cancer xenograft = assay: Human IGR-OV1 endometrial cancer xenograft model; conditions: mouse, in vivo
LNCaP = assay: Proliferation assay of prostate cancer cell lines with R1881 (Cell Titre-Glo, 144 h); type: cell-based; conditions: Homo sapiens, read-out: IC50, mono
[8] = test system: IGR-OV1 endometrial cancer xenograft; conditions: mouse, in vivo, po, 20 mg/kg
C4-2B = assay: Proliferation assay of prostate cancer cell lines with R1881 (Cell Titre-Glo, 144 h); type: cell-based; conditions: Homo sapiens, read-out: IC50, mono
MDA-MB-468 = assay: Proliferation assay, mono and fixed-ratio combinations (Cell Titre-Glo, 96 h); type: cell-based; conditions: Homo sapiens, MDA-MB-468, 96 h, read-out: IC50, mono
[9] = test system: 22Rv1 prostate cancer xenograft; assay: Human 22Rv1 prostate cancer xenograft model; conditions: mouse, in vivo; for T/C: po

In the case of `C[C@@H]1COCCN1c1cc(-c2ccnn2C)c2ccnc(-c3ccn[nH]3)c2n1` [Compound B, 2-[(3R)-3-methylmorpholin-4-yl]-4-(1-methyl-1H-pyrazol-5-yl)-8-(1H-pyrazol-5-yl)-1,7-naphthyridine], the “Anti-tumor efficacy of monotherapy compared to control” value [1] was “weak to moderate and statistically significant improved anti-tumor efficacy”, the T/C ([1]; po, 20 mg/kg) was 0.32* and the pIC50 (VCaP) was 7.80. For the same compound, the “Max. weight loss (%)” value [2] was −4%, the pIC50 (NCI-H460) was 6.60 and the “Max. weight loss (%)” value [3] was −8%. It also gave a growth inhibition [4] of 61%, an IC50 (OVCAR-3) of 1.65e-07 M and a pIC50 (IGR-OV1) of 7.40. The “Anti-tumor efficacy of monotherapy compared to control” value [5] was “good and statistically significant improved anti-tumor efficacy”, the T/C ([5]; po, 20 mg/kg) was 0.32* and the pIC50 (SNU-449) was 6.33. For the same compound, the pIC50 (SUM-149) was 7.74, the pIC50 (HCT 116) was 6.70 and the pIC50 (Huh-7) was 7.29. For the same compound, the “Max. weight loss (%)” value ([6]; 10 mg/kg) was −2%, the “Max. weight loss (%)” value ([6]; 20 mg/kg) was −6% and the IC50 (A2780) was 6.82e-08 M. For the same compound, the T/C [7] was 0.33*, the “Anti-tumor efficacy of monotherapy compared to control” value (IGR-OV1 cancer xenograft) was “good to moderate and statistically significant improved anti-tumor efficacy” and the pIC50 (LNCaP) was 7.82. For the same compound, the “Max. weight loss (%)” value [8] was −6%, the pIC50 (C4-2B) was 7.46 and the pIC50 (MDA-MB-468) was 6.72. For the same compound, the “Anti-tumor efficacy of monotherapy compared to control” value [9] was “weak to moderate and statistically significant improved anti-tumor efficacy”, the T/C ([9]; 10 mg/kg) was 0.56* and the T/C ([9]; 20 mg/kg) was 0.31*.
